Experimental findings from patent US20250269036A1, “METHODS FOR ENHANCEMENT OF ENGINEERED CELL THERAPIES IN CANCER TREATMENT” (PURDUE RESEARCH FOUNDATION, priority 2021, published 2025) are described below.

One series relates to BM-induced mice. As to conditions: mouse, in vivo. How it is done:
Studies were also performed to determine if macrophages in pulmonary fibrotic lungs might be specifically targeted with folate-linked drugs in vivo. […] (The BM model is widely regarded to be helpful in terms of enabling mechanistic investigations relevant to fibrogenesis in an in vivo context.)
More specifically, eight-week-old C57BL6 male mice from Charles River (average weight 22 g to 25 g) were housed under pathogen-free conditions at room temperature (22° C.) under a 12 hours light-dark cycle. Mice were placed on a folate deficient chow (Envigo Teklad Global Rat Food Pellets) for 1 week prior to the BM or PBS instillation. Fresh water and folate-deficient diet were freely available. All animal procedures were approved by the Purdue Animal Care and Use Committee in accordance with National Institute of Health guidelines.
Thereafter, the mice were anesthetized with ketamine/xylazine and the necks of the mice were shaved using hair remover lotion and then sterilized with 70% alcohol. A small incision was made on the neck to visualize the trachea. […] Body weights were monitored every other day throughout the experiment. […]
Bronchoalveolar lavage fluid (BALF) was then analyzed to determine how the targeted TLR7 agonist works. […]

Another series concerns healthy mice. As to conditions: mouse, in vivo.

Take `CCCCc1nc2c(N)nc3ccccc3c2n1CC(C)(C)O` [Compound 1A, 1-(4-Amino-2-butyl-1H-imidazo[4,5-c]quinolin-1-yl)-2-methylpropan-2-ol]: the weight loss in the series on BM-induced mice is over 25%. Moreover, the “systemic cytokine release (plasma IL-6, IFNα, TNFα)” value with healthy mice is recorded as “stimulates systemic cytokine release”.
